Experimental findings from ChEMBL document CHEMBL3616415 are described below.

The chains behind the UniProt entries cited, without tags or fusion partners.
UniProt P97266, whole entry, looked up: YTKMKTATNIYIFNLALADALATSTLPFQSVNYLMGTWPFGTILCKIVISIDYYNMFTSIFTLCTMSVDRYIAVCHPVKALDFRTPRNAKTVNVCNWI
UniProt P32300, whole entry, looked up: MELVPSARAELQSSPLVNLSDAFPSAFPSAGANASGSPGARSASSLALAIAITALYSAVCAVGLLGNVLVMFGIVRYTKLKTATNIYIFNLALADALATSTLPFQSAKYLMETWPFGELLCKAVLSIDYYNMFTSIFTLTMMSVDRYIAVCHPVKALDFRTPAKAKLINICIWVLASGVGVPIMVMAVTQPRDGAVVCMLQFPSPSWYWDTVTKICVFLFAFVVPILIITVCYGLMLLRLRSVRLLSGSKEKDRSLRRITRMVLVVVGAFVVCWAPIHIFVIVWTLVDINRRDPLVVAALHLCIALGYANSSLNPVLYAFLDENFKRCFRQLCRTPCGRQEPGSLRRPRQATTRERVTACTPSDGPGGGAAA

One assay has as its target Mu-type opioid receptor (Cavia porcellus, UniProt P97266). The settings on record: Ileum.
Assay [1] has as its target Delta-type opioid receptor (Mus musculus, UniProt P32300). The assay can be described thus: Agonist activity at delta opioid receptor in mouse vas deferens assessed as inhibition of electrically stimulated muscle contraction.

As usually defined, the IC50 is the midpoint of a concentration-inhibition curve.

Take `C[C@H](NC(=O)[C@H](CC(=O)O)NC(=O)[C@@H](N)Cc1ccc(O)cc1)C(=O)NCC(=O)N[C@@H](Cc1ccccc1)C(N)=O`: the figures for the IC50 (against Mu-type opioid receptor; in assay [1]) were 40 nM and 0.72 nM, respectively.
